# This is a selection: effects in other tests are not listed, and their absence says nothing.
# Amino acid sequences for entries named in this document (tags omitted). Residues count along the entry.
# UniProt P25092, 24-1073 limits assumed: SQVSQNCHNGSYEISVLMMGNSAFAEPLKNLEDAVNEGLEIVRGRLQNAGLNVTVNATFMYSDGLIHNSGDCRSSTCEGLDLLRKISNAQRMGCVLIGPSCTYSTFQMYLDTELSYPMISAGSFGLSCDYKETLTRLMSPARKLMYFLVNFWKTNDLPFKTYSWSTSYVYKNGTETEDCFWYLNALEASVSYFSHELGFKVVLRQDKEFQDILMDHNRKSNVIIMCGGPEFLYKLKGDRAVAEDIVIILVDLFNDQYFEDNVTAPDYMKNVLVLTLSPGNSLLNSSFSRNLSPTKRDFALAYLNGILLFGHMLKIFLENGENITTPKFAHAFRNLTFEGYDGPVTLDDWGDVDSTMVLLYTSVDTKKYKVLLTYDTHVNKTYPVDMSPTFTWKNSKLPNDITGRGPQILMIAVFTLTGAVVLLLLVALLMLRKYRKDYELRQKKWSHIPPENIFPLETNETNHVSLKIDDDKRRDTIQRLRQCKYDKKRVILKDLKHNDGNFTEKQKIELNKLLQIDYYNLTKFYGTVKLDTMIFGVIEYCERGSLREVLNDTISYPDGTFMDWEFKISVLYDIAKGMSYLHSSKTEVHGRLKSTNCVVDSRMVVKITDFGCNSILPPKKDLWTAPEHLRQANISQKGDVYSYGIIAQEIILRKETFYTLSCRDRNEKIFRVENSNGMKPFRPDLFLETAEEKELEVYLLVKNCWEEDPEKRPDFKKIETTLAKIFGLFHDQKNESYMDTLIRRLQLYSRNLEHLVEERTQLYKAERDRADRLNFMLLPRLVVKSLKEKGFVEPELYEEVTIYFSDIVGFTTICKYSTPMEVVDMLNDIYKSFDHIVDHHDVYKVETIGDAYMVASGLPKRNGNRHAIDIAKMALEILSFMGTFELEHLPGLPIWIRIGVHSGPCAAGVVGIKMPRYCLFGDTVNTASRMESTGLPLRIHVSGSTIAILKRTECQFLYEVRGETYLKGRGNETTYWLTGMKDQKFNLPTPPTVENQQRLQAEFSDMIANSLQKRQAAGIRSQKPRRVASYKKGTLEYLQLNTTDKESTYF
# Molecular target: intestinal guanylate cyclase (Homo sapiens, UniProt P25092)
# Assay: Cyclic GMP determination in T84 cells (bioassay)
# Format: cell-based
# Conditions: 10^-3 M
substance,measurement,value
sodium nitroprusside,effect on cyclic GMP levels,not detected

# — patent publication US5140102A, “Pentadecapeptide, guanylin, which stimulates intestinal guanylate cyclase” (Monsanto Company, priority 1991, dated 1992)
